# Article PMC10709440, “High-throughput ligand profile characterization in novel cell lines expressing seven heterologous insect olfactory receptors for the detection of volatile plant biomarkers” (Scientific Reports, 2023)
# “And” between values parts separate entries of the source, which are not always exact repeats. Identical values can stand only once.
# What was measured:
# Drosophila OR71a = target: T1, Drosophila OR71a (Drosophila melanogaster, UniProt Q9VUK5); test: Calcium ion fluorescence (GCaMP6) assay, OR71a stable HEK293 cell line; format: cell-based; conditions: for OR71a Average response (VUAA1-normalized): 50 μM VUAA1 = 1; for Average response: OR71a cell line, VUAA1-normalized response, mean of biological replicates; for DF norm AVERAGE OR71a: normalized fluorescence change, values below 0.05 threshold given as 0
# T1 construct: expressed in transfected cells
# T1 sequence (Q9VUK5 1-378): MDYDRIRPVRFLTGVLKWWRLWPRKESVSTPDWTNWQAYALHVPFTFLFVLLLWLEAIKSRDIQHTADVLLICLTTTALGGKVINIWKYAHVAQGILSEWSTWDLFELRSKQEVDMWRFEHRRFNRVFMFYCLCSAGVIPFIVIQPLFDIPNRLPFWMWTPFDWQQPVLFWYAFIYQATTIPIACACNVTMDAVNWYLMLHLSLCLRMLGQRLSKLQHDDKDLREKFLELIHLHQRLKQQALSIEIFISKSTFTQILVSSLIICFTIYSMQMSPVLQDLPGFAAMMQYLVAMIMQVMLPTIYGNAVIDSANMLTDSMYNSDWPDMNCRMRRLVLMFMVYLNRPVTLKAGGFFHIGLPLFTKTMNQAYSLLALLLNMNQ
# T1 sequence (Q9VNB5 1-486 partner): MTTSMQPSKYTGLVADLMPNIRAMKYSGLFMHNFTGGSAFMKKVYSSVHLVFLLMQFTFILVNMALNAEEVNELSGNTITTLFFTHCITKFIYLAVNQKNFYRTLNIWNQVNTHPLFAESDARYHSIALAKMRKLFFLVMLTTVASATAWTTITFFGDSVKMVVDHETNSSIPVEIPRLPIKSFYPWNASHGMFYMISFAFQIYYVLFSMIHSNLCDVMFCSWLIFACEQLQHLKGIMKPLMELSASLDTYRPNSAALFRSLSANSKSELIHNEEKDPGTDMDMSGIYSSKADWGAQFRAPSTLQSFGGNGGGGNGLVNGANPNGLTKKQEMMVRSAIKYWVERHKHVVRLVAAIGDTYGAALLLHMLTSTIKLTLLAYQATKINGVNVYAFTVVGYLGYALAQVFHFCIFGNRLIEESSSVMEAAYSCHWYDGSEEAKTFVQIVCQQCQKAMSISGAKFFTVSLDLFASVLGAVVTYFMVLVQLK
# Experimental: These VUAA1 normalized ∆F values were used to compare the different receptors and ligands.
# The concentration-dependent effect of the reference ligands on their cognate cell lines was examined in more detail. Twelve different ligand concentrations were measured on each cell line in an overall 0.01 μM to 100 μM concentration range with 5 repetitions with three technical replicates each time.
# Twelve thousand to 18,000 cells were plated into each well of a black wall, transparent bottom 384-well microplate (Greiner) 48 h or 72 h before the measurements and were simultaneously treated with 1 μg/mL doxycycline. […] The plate has 24 columns, thus we could record responses in up to eight different cell lines in each plate. On the day of the experiment, the growth medium was replaced with 20 µL assay buffer/well (140 mM NaCl, 5 mM KCl, 2 mM CaCl2, 1 mM MgCl2, 5 mM HEPES-Na, 20 mM glucose, pH 7.3, 340 mOsm). […] Baseline fluorescence (F0) was recorded for 5 s, after which 7 µL VOC buffer (140 mM NaCl, 5 mM KCl, 2 mM CaCl2, 1 mM MgCl2, 5 mM HEPES-Na, 31 mM glucose, 0.1% DMSO, pH 7.3, 340 mOsm) was injected into each well in one row and the fluorescence response was recorded for an additional 30 s, at a rate of one read/sec. VOC solutions (VOC buffer with 4× concentration of the final measured VOC concentration, 9 µL/well was injected) were measured on the same wells in a second round with the same protocol. Each individual concentration of a specific VOC sample was recorded in three wells for the same cell line on the same microplate. The raw data were exported in xls file format, F0 and FMAX values, and the fluorescence intensity changes (∆F) were calculated in Excel (Microsoft) (Supplementary file Data summary.xlsx) using the following equation: ΔF=FMAX-F0/F0 (see also Fig. 1C). On each plate, we recorded the response of each cell line to 50 µM VUAA1. The average of these ∆F values of each cell line were used to calculate the VUAA1-normalized values for the rest of the plate, by dividing VOC response ∆F values by the average VUAA1 response ∆F value of the corresponding OR cell line. Each VOC-OR combination was measured three times as technical replicates. […] The average of these replicates were used as one ∆F and VUAA1-normalized ∆F in the following analysis.
# In the next rows we tested the reference VOCs (or other VOCs known to activate the corresponding cell lines), in order to test if all cell lines are responsive. The remaining rows were used to test VOCs with unknown effect.
# The recorded FMAX, F0, ∆F, VUAA1-normalized ∆F values, as well as the OR name, the name of the tested sample, and the final concentration for each well were copied into supplementary file Data summary.xlsx, that was used to summarize all the plates recorded. Here, the averages of the measurements were calculated for each receptor-VOC-concentration combination.
# OR49b = tested on: OR49b; parameters: method as in earlier work; conditions: DoOR database value; ref DoOR; cited from earlier work
# OR85b = tested on: OR85b; parameters: method as in earlier work; conditions: DoOR database value; ref DoOR; cited from earlier work
# OR98a = tested on: OR98a; parameters: method as in earlier work; conditions: DoOR database value; ref DoOR; cited from earlier work
# [1] = HEK293, read-out: OR71a response (VUAA1-normalized response)
# [2] = OR71a, average of 5 biological replicates
# [3] = OR71a, fit of each biological replicate
# [4] = OR71a, fit of the averaged curve
smiles,measurement,setting,value
CC(=O)CCC=C(C)C [6-methyl-5-hepten-2-one],OR71a Average response (VUAA1-normalized),Drosophila OR71a; 1 μM VOC,0.03
same,OR71a Average response (VUAA1-normalized),Drosophila OR71a; 10 μM VOC,0.18
same,OR71a Average response (VUAA1-normalized),Drosophila OR71a; 100 μM VOC,0.19
same,EC50,"Drosophila OR71a; AVERAGE EC50, OR71a, printed with 95% confidence interval, matches the average LOG EC50",1.62 µM
same,EC50,"Drosophila OR71a; EC50 (fitted parameter), OR71a, fit of each biological replicate",3.42 µM and 1.63 µM and 1.41 µM and 2.57 µM and 0.543 µM
same,EC50,"Drosophila OR71a; EC50, AVERAGE, OR71a, arithmetic average of 5 replicate EC50",1.92 µM
same,EC50,"Drosophila OR71a; EC50, FITTED AVERAGE CURVE, OR71a, fit of the averaged curve",1.54 µM
same,EC50,"Drosophila OR71a; EC50, OR71a cell line, fitted Hill equation, Hill coefficient constrained to 1, maximal response max 1",1.62 µM
same,activation at 1 µM,Drosophila OR71a; [1],0%
same,activation at 10 µM,Drosophila OR71a; [1],18%
same,activation at 100 µM,Drosophila OR71a; [1],19%
same,Emax,"Drosophila OR71a; HEK293, read-out: VUAA1 normalized MAX response",20%
same,EC50,"Drosophila OR71a; LOG EC50, AVERAGE, OR71a, average of 5 biological replicates",1.62 µM
same,Average response,Drosophila OR71a; cc. 1 µM,0.0267
same,Average response,Drosophila OR71a; cc. 10 µM,0.18
same,Average response,Drosophila OR71a; cc. 100 µM,0.19
same,"response, AVERAGE","Drosophila OR71a; OR71a, VOC concentration 0.15",0
same,"response, biological replicates","Drosophila OR71a; OR71a, VOC concentration 0.15",0
same,"response, AVERAGE","Drosophila OR71a; OR71a, VOC concentration 0.3",0.02478
same,"response, biological replicates","Drosophila OR71a; OR71a, VOC concentration 0.3",0.09911 and 0 (3×)
same,"response, AVERAGE","Drosophila OR71a; OR71a, VOC concentration 0.6",0.02954
same,"response, biological replicates","Drosophila OR71a; OR71a, VOC concentration 0.6",0 (3×) and 0.08838 and 0.05933
same,"response, AVERAGE","Drosophila OR71a; OR71a, VOC concentration 1.25",0.07965
same,"response, biological replicates","Drosophila OR71a; OR71a, VOC concentration 1.25",0.1099 and 0 and 0.129
same,"response, AVERAGE","Drosophila OR71a; OR71a, VOC concentration 2.5",0.1242
same,"response, biological replicates","Drosophila OR71a; OR71a, VOC concentration 2.5",0.1201 and 0.133 and 0.08738 and 0.142 and 0.1387
same,"response, AVERAGE","Drosophila OR71a; OR71a, VOC concentration 5",0.1684
same,"response, biological replicates","Drosophila OR71a; OR71a, VOC concentration 5",0.1067 and 0.1704 and 0.1827 and 0.2138
same,"response, AVERAGE","Drosophila OR71a; OR71a, VOC concentration 10",0.2413
same,"response, biological replicates","Drosophila OR71a; OR71a, VOC concentration 10",0.194 and 0.2008 and 0.2784 and 0.2921
same,"response, AVERAGE","Drosophila OR71a; OR71a, VOC concentration 20",0.1802
same,"response, biological replicates","Drosophila OR71a; OR71a, VOC concentration 20",0.2754 and 0.1495 and 0.1134 and 0.2326 and 0.13
same,"response, AVERAGE","Drosophila OR71a; OR71a, VOC concentration 40",0.187
same,"response, biological replicates","Drosophila OR71a; OR71a, VOC concentration 40",0.1021 and 0.2434 and 0.1602 and 0.3055 and 0.1239
same,"response, AVERAGE","Drosophila OR71a; OR71a, VOC concentration 60",0.1715
same,"response, biological replicates","Drosophila OR71a; OR71a, VOC concentration 60",0.2768 and 0.1012 and 0.2214 and 0.08644
same,"response, AVERAGE","Drosophila OR71a; OR71a, VOC concentration 80",0.1832
same,"response, biological replicates","Drosophila OR71a; OR71a, VOC concentration 80",0.2635 and 0.1848 and 0.1112 and 0.2643 and 0.09198
same,"response, AVERAGE","Drosophila OR71a; OR71a, VOC concentration 100",0.1563
same,"response, biological replicates","Drosophila OR71a; OR71a, VOC concentration 100",0.1989 and 0.09653 and 0.1984 and 0.1315
same,AVERAGE MAX,Drosophila OR71a; [2],0.2003
same,"n, AVERAGE",Drosophila OR71a; [2],1
same,MAX (fitted parameter),Drosophila OR71a; [3],0.2331 and 0.2213 and 0.1441 and 0.2684 and 0.1348
same,n (fitted parameter),Drosophila OR71a; [3],1
same,"MAX, FITTED AVERAGE CURVE",Drosophila OR71a; [4],0.1989
same,"n, FITTED AVERAGE CURVE",Drosophila OR71a; [4],0.855
same,DF norm AVERAGE OR71a,Drosophila OR71a; concentration 1,0
same,DF norm AVERAGE OR71a,Drosophila OR71a; concentration 10,0.1839
same,DF norm AVERAGE OR71a,Drosophila OR71a; concentration 100,0.1937
same,OR49b DoOR response,OR49b,0.008
same,OR85b DoOR response,OR85b,0.75
same,OR98a DoOR response,OR98a,0.69
